Test results as given in publication PMC9032790.

Test system: antibody from the 1F7-cell clone
Assay: heterologous ic-ELISA hybridoma screening, 1F7 clone
Settings: free clothianidin 50 μg/L; IMI-H-OVA 5 μg/mL

For `CN/C(=N\[N+](=O)[O-])NCc1cnc(Cl)s1` [clothianidin], the “inhibition of antibody binding to IMI-H-OVA” value was 74.63%.
